Reference: BindingDB's records for doi:10.1016/j.bioorg.2016.07.013 (Shenyang Pharmaceutical University, 2016)

Amino acid sequences for entries named in this document (tags omitted).
UniProt P06276, whole entry: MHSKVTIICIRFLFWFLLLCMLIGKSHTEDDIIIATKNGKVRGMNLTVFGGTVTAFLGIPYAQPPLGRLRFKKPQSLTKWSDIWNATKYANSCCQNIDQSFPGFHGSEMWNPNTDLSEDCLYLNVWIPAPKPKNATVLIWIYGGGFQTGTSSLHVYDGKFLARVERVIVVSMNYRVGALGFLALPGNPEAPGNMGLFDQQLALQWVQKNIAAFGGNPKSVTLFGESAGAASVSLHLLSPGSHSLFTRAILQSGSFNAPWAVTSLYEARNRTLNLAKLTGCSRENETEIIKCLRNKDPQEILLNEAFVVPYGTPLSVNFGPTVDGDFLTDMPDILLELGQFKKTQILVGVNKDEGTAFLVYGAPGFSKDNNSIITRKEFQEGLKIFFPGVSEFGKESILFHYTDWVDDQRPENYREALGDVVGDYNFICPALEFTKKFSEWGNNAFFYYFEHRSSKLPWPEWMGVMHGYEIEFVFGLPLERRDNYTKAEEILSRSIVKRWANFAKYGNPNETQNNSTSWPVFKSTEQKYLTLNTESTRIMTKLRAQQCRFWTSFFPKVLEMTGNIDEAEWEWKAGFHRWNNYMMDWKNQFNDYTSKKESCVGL

Target: Cholinesterase (Homo sapiens, UniProt P06276)
Assay: AChE and BuChE Inhibition Assay
Settings: pH 8
Procedure: The reaction mixture was consisted of 100 µL of the total volume.

## CC(C)NP(=O)(NC(C)C)OP(=O)(NC(C)C)NC(C)C [({[bis(propan-2-ylamino)phosphoryl]oxy}(propan-2-ylamino)phosphoryl)(propan-2-yl)amine]
  pIC50: 6.87

pIC50: −log10 of the molar value.
